One may read the IC50 as the concentration that gives 50% inhibition. Read a high IC50 as weaker potency.

Chains of the proteins cited; added tags and fusions are not shown. Residues count along the entry.
UniProt P23739, 1014-1841 limits assumed: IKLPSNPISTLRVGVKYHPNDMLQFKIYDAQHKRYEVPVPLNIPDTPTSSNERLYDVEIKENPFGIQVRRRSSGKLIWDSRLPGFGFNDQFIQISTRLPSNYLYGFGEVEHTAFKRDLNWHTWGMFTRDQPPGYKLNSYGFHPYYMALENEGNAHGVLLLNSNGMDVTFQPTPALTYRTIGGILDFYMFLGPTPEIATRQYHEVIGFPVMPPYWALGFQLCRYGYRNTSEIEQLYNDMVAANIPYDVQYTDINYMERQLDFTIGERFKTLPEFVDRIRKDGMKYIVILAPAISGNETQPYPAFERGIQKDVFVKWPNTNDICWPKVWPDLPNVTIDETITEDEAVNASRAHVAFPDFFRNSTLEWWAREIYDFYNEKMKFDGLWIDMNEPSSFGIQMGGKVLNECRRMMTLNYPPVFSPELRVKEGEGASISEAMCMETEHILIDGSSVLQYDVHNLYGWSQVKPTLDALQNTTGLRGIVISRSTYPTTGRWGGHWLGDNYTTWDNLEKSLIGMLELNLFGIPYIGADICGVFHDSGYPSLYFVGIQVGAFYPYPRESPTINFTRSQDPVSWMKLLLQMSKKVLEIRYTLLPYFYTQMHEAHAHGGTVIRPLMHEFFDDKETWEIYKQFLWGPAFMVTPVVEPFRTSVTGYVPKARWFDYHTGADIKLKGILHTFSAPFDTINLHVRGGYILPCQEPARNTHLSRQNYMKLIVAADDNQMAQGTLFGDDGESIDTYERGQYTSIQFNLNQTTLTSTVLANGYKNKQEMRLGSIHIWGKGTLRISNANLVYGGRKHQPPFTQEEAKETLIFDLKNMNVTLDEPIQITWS
UniProt P23739, 1-1013 limits assumed: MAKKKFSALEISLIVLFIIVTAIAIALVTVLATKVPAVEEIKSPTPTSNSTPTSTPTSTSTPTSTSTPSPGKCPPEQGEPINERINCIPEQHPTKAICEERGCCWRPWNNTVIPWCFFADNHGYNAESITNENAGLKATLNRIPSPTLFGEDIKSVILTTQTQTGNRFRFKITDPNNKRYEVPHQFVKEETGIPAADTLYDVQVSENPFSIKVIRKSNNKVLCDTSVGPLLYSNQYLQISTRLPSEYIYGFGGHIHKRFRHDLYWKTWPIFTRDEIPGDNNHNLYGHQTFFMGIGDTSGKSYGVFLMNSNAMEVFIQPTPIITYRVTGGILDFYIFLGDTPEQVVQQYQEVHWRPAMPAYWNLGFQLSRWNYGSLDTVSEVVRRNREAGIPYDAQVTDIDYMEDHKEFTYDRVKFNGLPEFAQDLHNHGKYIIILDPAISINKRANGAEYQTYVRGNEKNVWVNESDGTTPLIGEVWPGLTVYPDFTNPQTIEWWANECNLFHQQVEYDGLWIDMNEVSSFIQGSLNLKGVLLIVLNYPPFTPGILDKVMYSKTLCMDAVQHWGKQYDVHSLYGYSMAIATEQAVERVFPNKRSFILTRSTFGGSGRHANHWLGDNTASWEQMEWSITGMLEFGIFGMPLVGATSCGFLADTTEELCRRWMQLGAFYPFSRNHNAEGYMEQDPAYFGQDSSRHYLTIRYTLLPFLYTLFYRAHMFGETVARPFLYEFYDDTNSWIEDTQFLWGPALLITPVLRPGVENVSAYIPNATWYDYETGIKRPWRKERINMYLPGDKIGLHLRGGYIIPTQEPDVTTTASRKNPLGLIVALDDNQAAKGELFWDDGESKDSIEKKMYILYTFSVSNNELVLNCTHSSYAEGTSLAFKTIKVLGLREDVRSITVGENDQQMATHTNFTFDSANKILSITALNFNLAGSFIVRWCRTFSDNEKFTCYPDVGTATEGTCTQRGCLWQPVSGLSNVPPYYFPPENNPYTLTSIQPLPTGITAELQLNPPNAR

The experiment concerns the target Sucrase-isomaltase, intestinal (Rattus norvegicus, UniProt P23739). The experiment in a line: Inhibition of sucrase in rat small intestine using sucrose as substrate after 40 mins by microplate reader analysis.

`C[C@H]1O[C@H](O[C@H]2[C@H](O)[C@@H](O)[C@@H](O[C@H]3[C@H](O)[C@@H](O)C(O)O[C@@H]3CO)O[C@@H]2CO)[C@H](O)[C@@H](O)[C@@H]1N[C@H]1C=C(CO)[C@@H](O)[C@H](O)[C@H]1O` (stereo partly specified) [ACARBOSE] had an IC50 of 2300 nM. This lies in the single-digit micromolar range.

Values taken from ChEMBL document CHEMBL3217649, “Synthesis of new N-substituted aminoquercitols from naturally available (+)-proto-quercitol and their -glucosidase inhibitory activity” (Medchemcomm, 2012).
